Source: ChEMBL document CHEMBL5442175, “EUbOPEN Chemogenomics Library - PDSP Secondary Binding” (2024)
Where a name gives a salt, the structure may show the parent alone.

Sequences of proteins named here, by UniProt entry; tags and fusion partners are left off. A change or cut given only in a name is not applied to a line headed by its entry.
UniProt P08913, whole entry: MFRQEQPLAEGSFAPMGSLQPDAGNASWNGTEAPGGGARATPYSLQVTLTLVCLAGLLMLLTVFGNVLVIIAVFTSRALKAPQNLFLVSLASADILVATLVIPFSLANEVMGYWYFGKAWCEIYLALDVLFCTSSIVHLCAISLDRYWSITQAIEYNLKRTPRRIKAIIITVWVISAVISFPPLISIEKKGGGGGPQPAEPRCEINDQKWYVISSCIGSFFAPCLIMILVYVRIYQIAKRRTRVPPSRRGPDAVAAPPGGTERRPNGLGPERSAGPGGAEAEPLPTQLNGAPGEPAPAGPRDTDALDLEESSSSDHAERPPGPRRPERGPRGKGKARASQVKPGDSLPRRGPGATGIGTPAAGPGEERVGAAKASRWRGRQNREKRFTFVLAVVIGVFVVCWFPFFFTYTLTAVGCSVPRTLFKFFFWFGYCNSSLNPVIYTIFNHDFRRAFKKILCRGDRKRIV
UniProt P28335: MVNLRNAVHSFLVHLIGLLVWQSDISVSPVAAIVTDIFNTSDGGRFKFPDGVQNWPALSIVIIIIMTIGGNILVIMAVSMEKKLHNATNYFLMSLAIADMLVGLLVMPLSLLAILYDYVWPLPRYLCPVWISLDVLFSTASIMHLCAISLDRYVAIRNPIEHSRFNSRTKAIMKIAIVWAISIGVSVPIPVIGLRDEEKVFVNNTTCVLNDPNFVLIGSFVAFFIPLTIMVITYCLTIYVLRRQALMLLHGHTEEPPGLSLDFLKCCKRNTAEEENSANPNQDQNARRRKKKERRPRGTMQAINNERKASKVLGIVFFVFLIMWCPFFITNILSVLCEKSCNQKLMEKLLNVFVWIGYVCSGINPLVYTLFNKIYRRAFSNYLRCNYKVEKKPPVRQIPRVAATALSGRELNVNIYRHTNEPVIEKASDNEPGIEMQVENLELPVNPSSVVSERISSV
UniProt P28222, whole entry: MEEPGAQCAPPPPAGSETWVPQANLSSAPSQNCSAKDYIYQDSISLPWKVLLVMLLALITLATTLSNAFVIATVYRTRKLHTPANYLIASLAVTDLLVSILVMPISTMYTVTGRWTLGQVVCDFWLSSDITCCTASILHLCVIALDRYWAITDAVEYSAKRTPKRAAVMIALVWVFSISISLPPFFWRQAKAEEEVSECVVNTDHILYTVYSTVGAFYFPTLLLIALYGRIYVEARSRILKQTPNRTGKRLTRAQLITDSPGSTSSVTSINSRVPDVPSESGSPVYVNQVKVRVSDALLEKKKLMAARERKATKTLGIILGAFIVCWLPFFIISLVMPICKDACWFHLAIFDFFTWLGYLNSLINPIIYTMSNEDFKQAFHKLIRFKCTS

Columns and labels:
[1] = biological target: Alpha-2A adrenergic receptor (Homo sapiens, UniProt P08913)
[2] = biological target: 5-hydroxytryptamine receptor 2C (Homo sapiens, UniProt P28335)
[3] = biological target: 5-hydroxytryptamine receptor 1B (Homo sapiens, UniProt P28222); experiment: PDSP Secondary Binding target: HTR1B - Compounds are tested at 10 uM concentration, plate are incubated at room temperature in the dark for 90 minutes. Reaction are stopped by vacuum filtration onto 0.3% polyethyleneimine soaked filter mats using Filtermate harvester. Scintillation cocktail is then melted onto microwave-dried filters on a hot plate and the radio activity is counted in Microbia …

SMILES	Ki [1]	Ki [2]	Ki [3]
CCc1nn(CCCN2CCN(c3cccc(Cl)c3)CC2)c(=O)n1CCOc1ccccc1 [NEFAZODONE HYDROCHLORIDE]	1370 nM	253 nM	–
CN[C@@H]1CCc2[nH]c3ccc(C(N)=O)cc3c2C1 [FROVATRIPTAN SUCCINATE]	–	–	22.9 nM
COC(=O)[C@H]1[C@H]2C[C@H]3c4[nH]c5ccccc5c4CCN3C[C@H]2CC[C@@H]1O [RAUWOLSCINE HYDROCHLORIDE]	–	–	232 nM
